Reference: patent US9371337B2, “β-lactamase inhibitors” (The Regents of the University of California, priority 2011, dated 2016)

The chains behind the UniProt entries cited, without tags or fusion partners. Residues count along the entry.
UniProt Q9L5C8, 29-291: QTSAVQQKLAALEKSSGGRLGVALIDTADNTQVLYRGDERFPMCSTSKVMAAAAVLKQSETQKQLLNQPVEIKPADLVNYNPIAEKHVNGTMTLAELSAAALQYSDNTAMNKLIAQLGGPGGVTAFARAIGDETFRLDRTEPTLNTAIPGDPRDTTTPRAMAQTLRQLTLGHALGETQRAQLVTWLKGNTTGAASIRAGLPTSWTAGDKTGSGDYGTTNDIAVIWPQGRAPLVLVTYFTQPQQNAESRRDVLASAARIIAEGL

Legend:
Assay type in all cases: biochemical
CTX-M-9 β-lactamase = CTX-M-9 β-lactamase (Escherichia coli, UniProt Q9L5C8); conditions: Table 4h, CTX-M-9 vs AmpC
Description: Reactions were initiated by the addition of 0.3 nM enzyme and monitored at 405 nm.
(§1) To assess the selectivity of the new molecules we determined Ki values against three common serine proteases, Trypsin, Elastase and α-Chymotrypsin, as well as that of a class A β-lactamase, CTX-M-9 (Table 10) (Pouvreau L, et al. (1998), FEBS Lett 423:167-172; Del Mar E G, et al. (1980), Biochemistry 19:468-472; Rodriguez-Martinez J A, et al. (2009), Biotechnol Lett 31:883-887; Chen Y, et al. (2005), J Mol Biol 348:349-362).

[1] = target: T1, α-chymotrypsin (bovine pancreatic) (Bos taurus, UniProt P00766); assay: α-Chymotrypsin inhibition; conditions: Table 4h
T1 construct: purchased Sigma-Aldrich
Description: α-Chymotrypsin assays were performed in 50 mM Tris buffer pH 7.5 with 0.01% Triton-X. Inhibitor and 0.001 mg/mL enzyme were incubated at their final concentration for 10 min before the reaction was initiated by the addition of 200 μM N-succinyl-Ala-Ala-Pro-Phe p-nitroanilide and monitored at 410 nm.
as §1

Elastase = Elastase inhibition; conditions: Table 4h
Excerpt: as §1

Trypsin = Trypsin inhibition; conditions: Table 4h

Substance: Pinacol(chloromethanesulfonylamino)methaneboronate [CR70]
- Selectivity vs AmpC (comparison of IC50 values) (CTX-M-9 β-lactamase): 10
- Selectivity vs AmpC (comparison of IC50 values) [1]: 581
- Selectivity vs AmpC (comparison of IC50 values) (Elastase): 7
- Selectivity vs AmpC (comparison of IC50 values) (Trypsin): 2086
